The assay addresses IDO-1 (Homo sapiens (Human), UniProt P14902). The assay can be described thus: Indoleamine-2,3-dioxygenase 1 inhibitory activity (absorbance at 321 nm). In kind it is biochemical. The settings on record: read-out: Comparison of inhibitory activity of the IDO1, IC50; Table 1, comparison with tryptanthrins 5a, 5b, 5c, 5i.

Amino acid sequences for entries named in this document (tags omitted).
UniProt P14902, whole entry: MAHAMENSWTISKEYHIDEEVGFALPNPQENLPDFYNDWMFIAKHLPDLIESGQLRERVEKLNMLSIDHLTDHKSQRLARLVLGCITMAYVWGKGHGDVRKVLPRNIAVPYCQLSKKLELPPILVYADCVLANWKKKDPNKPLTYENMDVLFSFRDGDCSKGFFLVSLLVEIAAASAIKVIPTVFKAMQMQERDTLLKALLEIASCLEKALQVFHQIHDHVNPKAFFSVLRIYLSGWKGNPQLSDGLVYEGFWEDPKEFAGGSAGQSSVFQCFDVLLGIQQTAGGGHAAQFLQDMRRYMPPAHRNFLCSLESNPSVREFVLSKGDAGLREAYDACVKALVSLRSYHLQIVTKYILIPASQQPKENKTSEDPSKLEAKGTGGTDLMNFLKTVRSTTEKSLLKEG

SMILES strings stand for the structures.

As for `O=C1c2cc(F)ccc2-n2c1nc1ccccc1c2=O`, the IC50 – broadly, the concentration needed to halve the response being measured – was in the range of 100 to 1000 nM. With `O=C1c2cc([N+](=O)[O-])ccc2-n2c1nc1ccccc1c2=O` the figure was 100 to 1000 nM.

The values are drawn from patent US10669273B2, “Use of aza-tryptanthrin derivatives as inhibitors of IDO1 and/or TDO” (Peking University, priority 2016, dated 2020).
